# Data reported in BindingDB's records for 20638843.
# Amino acid sequences for entries named in this document (tags omitted). Residues count along the entry.
# UniProt Q05941, 23-502 limits assumed: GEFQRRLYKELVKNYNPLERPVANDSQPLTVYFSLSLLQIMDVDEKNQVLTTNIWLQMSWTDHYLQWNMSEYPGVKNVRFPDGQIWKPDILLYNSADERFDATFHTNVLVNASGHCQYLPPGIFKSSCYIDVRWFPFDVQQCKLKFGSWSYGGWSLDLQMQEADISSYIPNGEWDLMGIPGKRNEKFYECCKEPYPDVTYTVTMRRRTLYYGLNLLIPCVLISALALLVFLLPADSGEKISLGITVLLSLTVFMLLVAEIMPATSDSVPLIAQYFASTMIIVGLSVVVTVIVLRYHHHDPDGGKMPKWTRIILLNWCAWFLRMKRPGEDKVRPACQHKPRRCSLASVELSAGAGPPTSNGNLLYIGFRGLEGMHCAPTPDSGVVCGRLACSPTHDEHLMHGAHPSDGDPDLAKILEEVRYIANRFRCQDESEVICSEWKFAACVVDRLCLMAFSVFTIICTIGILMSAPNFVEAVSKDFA
# Target: Neuronal acetylcholine receptor subunit alpha-7 (Rattus norvegicus, UniProt Q05941)
# Assay: Displacement of [125I]alpha-bungarotoxin from alpha7 nicotinic acetylcholine receptor in rat brain membrane
smiles,measurement,value
O=C(NCC1CCN(Cc2ccccc2)CC1)c1cn(Cc2cccc(Cl)c2)nn1,IC50,11.9 µM
